Laboratory results published in paper PMC6207724, “Mechanism of activating mutations and allosteric drug inhibition of the phosphatase SHP2” (Nature Communications, 2018).

Legend:
FL-E76D SHP2 [1] = molecular target: T1, FL-E76D SHP2 (Homo sapiens, UniProt Q06124, E76D); settings: predominantly closed conformation
FL-C459E SHP2 = FL-C459E SHP2 (Homo sapiens, UniProt Q06124, C459E); settings: predominantly closed conformation
FL-C459S SHP2 = FL-C459S SHP2 (Homo sapiens, UniProt Q06124, C459S); settings: predominantly open conformation
FL-E76D SHP2 [2] = molecular target: T1, FL-E76D SHP2; settings: kobs at 500 μM substrate
FL-E76K SHP2 = FL-E76K SHP2 (Homo sapiens, UniProt Q06124, E76K); settings: kobs at 500 μM substrate

SHP099 affinity (ITC), in words (FL-E76D SHP2 [1]): tight affinities
SHP099 affinity (ITC), in words (FL-C459E SHP2): tight affinities
SHP099 affinity (ITC), in words (FL-C459S SHP2): much weaker affinities
SHP099 concentration needed to restore WT activity levels (FL-E76D SHP2 [2]): ~4.1 µM
SHP099 concentration needed to restore WT activity levels (FL-E76K SHP2): > 180 µM
Structure (SMILES): CC1(N)CCN(c2cnc(-c3cccc(Cl)c3Cl)c(N)n2)CC1 [SHP099]
